The test system of this assay is HLA-B44 supertype molecules. The experiment in a line: HLA-B44 supertype cross-binding. On the set-up: species or system human. Particulars: number of the six B44 supertype alleles bound.

The compound `CC[C@H](C)[C@H](NC(=O)[C@H](CCC(=O)O)NC(=O)[C@H](CCC(=O)O)NC(=O)[C@H](CC(C)C)NC(=O)[C@@H](NC(=O)[C@H](CCC(=O)O)NC(=O)[C@@H](N)Cc1ccccc1)[C@@H](C)O)C(=O)N[C@H](C(=O)NCC(=O)N[C@@H](Cc1ccc(O)cc1)C(=O)N[C@@H](CC(C)C)C(=O)O)[C@@H](C)O` [compound 510] registered a Degeneracy of 3.

The compound `CC(C)C[C@H](NC(=O)CNC(=O)[C@H](CCC(=O)O)NC(=O)CNC(=O)[C@@H](NC(=O)[C@H](CS)NC(=O)[C@H](CCC(=O)O)NC(=O)[C@H](CC(=O)O)NC(=O)[C@H](CCC(=O)O)NC(=O)[C@@H]1CCCN1)C(C)C)C(=O)O` [compound 512] returned a Degeneracy of 3.

For the compound `CC(C)C[C@H](NC(=O)CNC(=O)[C@H](CCC(=O)O)NC(=O)CNC(=O)[C@@H](NC(=O)[C@H](CS)NC(=O)[C@H](CCC(=O)O)NC(=O)[C@@H](N)CC(=O)O)C(C)C)C(=O)O` [compound 513], the Degeneracy turned out to be 3.

Consider `CC[C@H](C)[C@H](NC(=O)[C@H](CCC(=O)O)NC(=O)[C@H](CCCCN)NC(=O)[C@H](CC(N)=O)NC(=O)[C@H](C)NC(=O)[C@H](CCCCN)NC(=O)[C@@H]1CCCN1C(=O)[C@H](CO)NC(=O)[C@@H](NC(=O)[C@H](CC(N)=O)NC(=O)[C@H](CCC(=O)O)NC(=O)[C@@H](N)CCCNC(=N)N)[C@@H](C)O)C(=O)N[C@@H](CC(C)C)C(=O)O` [compound 515], for which the Degeneracy turned out to be 3.

Consider `CC[C@H](C)[C@H](NC(=O)[C@H](CCC(=O)O)NC(=O)[C@@H](N)CCCCN)C(=O)N[C@@H](CC(C)C)C(=O)N[C@@H](CC(=O)O)C(=O)N[C@@H](CCC(=O)O)C(=O)N[C@@H](C)C(=O)N[C@@H](Cc1ccc(O)cc1)C(=O)O` [compound 516], for which the Degeneracy turned out to be 3.

With `CSCC[C@H](NC(=O)[C@@H](NC(=O)[C@H](Cc1ccc(O)cc1)NC(=O)[C@H](C)NC(=O)[C@H](CCC(=O)O)NC(=O)[C@@H](N)CC(=O)O)C(C)C)C(=O)N[C@@H](C)C(=O)NCC(=O)N[C@H](C(=O)O)C(C)C` [compound 517], the Degeneracy is reported as 3.

Take `CC[C@H](C)[C@H](NC(=O)[C@H](CO)NC(=O)[C@H](CCC(=O)O)NC(=O)[C@@H](N)CC(C)C)C(=O)N[C@@H](CC(C)C)C(=O)N[C@@H](CCCNC(=N)N)C(=O)N[C@@H](CCCNC(=N)N)C(=O)N[C@@H](CCCNC(=N)N)C(=O)N[C@@H](Cc1ccccc1)C(=O)O` [compound 518]: the Degeneracy was determined as 3.

For `CSCC[C@H](NC(=O)[C@H](CC(C)C)NC(=O)[C@H](CCC(=O)O)NC(=O)[C@@H](N)Cc1c[nH]c2ccccc12)C(=O)N[C@H](C(=O)N[C@@H](Cc1ccccc1)C(=O)NCC(=O)N[C@@H](C)C(=O)N[C@@H](CCCCN)C(=O)N1CCC[C@H]1C(=O)N[C@@H](Cc1ccc(O)cc1)C(=O)O)[C@@H](C)O` [compound 519], the Degeneracy was found to be 3.

Consider `CC[C@H](C)[C@H](NC(=O)[C@H](CCC(=O)O)NC(=O)[C@@H](N)CCCNC(=N)N)C(=O)N1CCC[C@H]1C(=O)N[C@@H](CC(=O)O)C(=O)N[C@@H](CC(C)C)C(=O)N[C@@H](CC(C)C)C(=O)N[C@@H](CCC(=O)O)C(=O)N[C@@H](CCCCN)C(=O)NCC(=O)N[C@@H](CCC(=O)O)C(=O)N[C@@H](CCCNC(=N)N)C(=O)N[C@@H](CC(C)C)C(=O)O` [compound 520], for which the Degeneracy is on record as 3.

Consider `CC[C@H](C)[C@H](NC(=O)[C@@H]1CCCN1C(=O)[C@@H]1CCCN1C(=O)[C@H](CCC(N)=O)NC(=O)[C@@H]1CCCN1C(=O)[C@H](CC(C)C)NC(=O)[C@H](CCCNC(=N)N)NC(=O)[C@H](CCC(=O)O)NC(=O)CN)C(=O)N[C@@H](CS)C(=O)N[C@H](C(=O)O)[C@@H](C)O` [compound 521], for which the Degeneracy is reported as 3.

As to `CC(C)C[C@H](NC(=O)[C@H](CCC(=O)O)NC(=O)[C@H](CCCNC(=N)N)NC(=O)[C@H](Cc1ccccc1)NC(=O)[C@H](CCCNC(=N)N)NC(=O)[C@@H]1CCCN1C(=O)[C@H](CCCNC(=N)N)NC(=O)[C@H](CS)NC(=O)[C@H](CCC(=O)O)NC(=O)[C@@H](N)CO)C(=O)N[C@H](C(=O)O)C(C)C` [compound 522], the Degeneracy amounted to 3.

`CC(C)[C@H](NC(=O)[C@H](CC(=O)O)NC(=O)[C@H](CO)NC(=O)CNC(=O)[C@H](C)NC(=O)CNC(=O)[C@H](CCC(=O)O)NC(=O)[C@@H](N)CO)C(=O)N[C@@H](Cc1ccccc1)C(=O)O` [compound 523] registered a Degeneracy of 3.

`CC(C)C[C@H](NC(=O)CNC(=O)[C@H](CC(C)C)NC(=O)[C@H](Cc1ccc(O)cc1)NC(=O)[C@H](CCC(=O)O)NC(=O)[C@@H]1CCCN1)C(=O)N[C@@H](CC(=O)O)C(=O)N[C@H](C(=O)N1CCC[C@H]1C(=O)N[C@H](C(=O)O)C(C)C)C(C)C` [compound 524] showed a Degeneracy of 3.

The compound `CSCC[C@H](N)C(=O)N[C@@H](CCC(=O)O)C(=O)N[C@@H](Cc1c[nH]cn1)C(=O)N[C@@H](CC(C)C)C(=O)N[C@@H](CCCNC(=N)N)C(=O)N[C@@H](CCC(=O)O)C(=O)N[C@H](C(=O)N[C@@H](CCCNC(=N)N)C(=O)N[C@@H](C)C(=O)N[C@H](C(=O)N[C@H](C(=O)O)[C@@H](C)O)C(C)C)C(C)C` [compound 526] came in with a Degeneracy of 2.

The compound `CC[C@H](C)[C@H](NC(=O)[C@H](CCC(=O)O)NC(=O)[C@H](CCC(=O)O)NC(=O)[C@@H](N)CC(C)C)C(=O)N[C@H](C(=O)NCC(=O)N[C@@H](Cc1ccc(O)cc1)C(=O)N[C@@H](CC(C)C)C(=O)O)[C@@H](C)O` [compound 527] yielded a Degeneracy of 2.

The compound `CC[C@H](C)[C@H](NC(=O)[C@@H]1CCCN1C(=O)[C@H](CS)NC(=O)[C@@H]1CCCN1C(=O)[C@H](CCC(N)=O)NC(=O)[C@H](CS)NC(=O)[C@H](C)NC(=O)CNC(=O)[C@H](CCC(=O)O)NC(=O)[C@H](CCC(=O)O)NC(=O)[C@@H](N)CC(=O)O)C(=O)O` [compound 528] displayed a Degeneracy of 2.

For the compound `CC(C)C[C@H](NC(=O)[C@@H]1CCCN1C(=O)[C@H](CCC(=O)O)NC(=O)[C@@H](NC(=O)[C@H](CC(C)C)NC(=O)[C@H](CCC(=O)O)NC(=O)[C@@H](N)[C@@H](C)O)C(C)C)C(=O)O` [compound 529], the Degeneracy came to 2.

As for `CC(C)C[C@H](NC(=O)[C@@H]1CCCN1C(=O)[C@H](CCC(=O)O)NC(=O)[C@@H](N)C(C)C)C(=O)N[C@H](C(=O)N1CCC[C@H]1C(=O)N[C@@H](CO)C(=O)NCC(=O)N[C@@H](C)C(=O)O)[C@@H](C)O` [compound 530], the Degeneracy stood at 2.

Consider `CC(C)C[C@H](NC(=O)[C@H](CCC(=O)O)NC(=O)[C@@H](NC(=O)[C@H](CCC(=O)O)NC(=O)[C@@H](N)CCCCN)[C@@H](C)O)C(=O)N[C@@H](CCCNC(=N)N)C(=O)N[C@@H](CCCCN)C(=O)N[C@H](C(=O)N[C@@H](CCCCN)C(=O)N[C@H](C(=O)O)C(C)C)C(C)C` [compound 531], for which the Degeneracy is 2.

The compound `CC(C)C[C@H](NC(=O)[C@@H](NC(=O)[C@H](CCCCN)NC(=O)[C@@H](NC(=O)[C@H](CCCCN)NC(=O)[C@H](CCCNC(=N)N)NC(=O)[C@H](CC(C)C)NC(=O)[C@H](CCC(=O)O)NC(=O)[C@@H](N)[C@@H](C)O)C(C)C)C(C)C)C(=O)O` [compound 532] yielded a Degeneracy of 2.

Compound `CC(C)C[C@H](NC(=O)[C@H](CC(=O)O)NC(=O)[C@H](CCCNC(=N)N)NC(=O)[C@H](Cc1c[nH]cn1)NC(=O)[C@@H](NC(=O)[C@H](CC(C)C)NC(=O)[C@H](CCCNC(=N)N)NC(=O)[C@@H](NC(=O)[C@H](CC(=O)O)NC(=O)[C@H](CCC(=O)O)NC(=O)[C@@H](N)CC(C)C)C(C)C)C(C)C)C(=O)O` [compound 533] registered a Degeneracy of 2.

For the origin of these results see patent US20060094649A1, “Hla-a1,-a2,-a3,-a24,-b7, and-b44 tumor associated antigen peptides and compositions” (priority 2002, published 2006).
